Measurements published in PubChem BioAssay AID1222 (Sanford-Burnham Center for Chemical Genomics, 2008).
Some of the results follow. Potency and affinity values are given separately. Calls of active or inactive are those of the source.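 Rule for the calls: active = EC50 below 50 µM in the dose-response confirmation; inactive = the rest.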

assay: protection against thapsigargin-triggered cell killing – 384-well, CSM14.1, ATP luminescence, primary screen (AID 1222); conditions: CSM14.1 thapsigargin-induced death rescue, at 20 µM, stronger effect = higher value;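 note: death triggered by thapsigargin at about 15 µM added after 2 h compound pretreatment; cell ATP read after overnight thapsigargin exposure of roughly 18 to 22 hours; reference of the scale not given here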

For `O=C(NCC1(N2CCOCC2)CCCCC1)c1cc(=O)[nH]c2ccccc12`, which cellular ATP content (survival) is on record?
Its cellular ATP content (survival) is inactive: -0.9%.

With `CN1CCN(CCOC(=O)C(O)(c2ccccc2)c2ccccc2)CC1` as the compound, how does the cellular ATP content (survival) read?
Its cellular ATP content (survival) is inactive: 23.7%.

With `N#CC1(Nc2ccccc2)CCN(CCc2ccccc2)CC1` as the compound, how does the cellular ATP content (survival) read?
Its cellular ATP content (survival) is inactive: -0.5%.

For `COc1ccc(CN(CCCl)CCCl)cc1Cl`, which cellular ATP content (survival) is on record?
Its cellular ATP content (survival) is inactive: 3.6%.

With `CN(C)c1cccc(C(=O)NCC2(N3CCCCC3)CCCCC2)c1` as the compound, how does the cellular ATP content (survival) read?
The cellular ATP content (survival) was inactive: -0.1%.

For `O=C(OC1CN2CCC1CC2)C1c2ccccc2Oc2ccccc21` (stereo unspecified), which cellular ATP content (survival) is on record?
Its cellular ATP content (survival) is inactive: -3.4%.

Which cellular ATP content (survival) does the source give for `CCOC(=O)N1CCC(Nc2ccc(OC)cc2)CC1` here?
The cellular ATP content (survival) was inactive: 2.6%.

With `O=C(NCC1(N2CCOCC2)CCCCC1)c1cc2ccccc2o1` as the compound, how does the cellular ATP content (survival) read?
Its cellular ATP content (survival) is inactive: 0.4%.

For `COc1ccc(C(=O)NCC2(N3CCCCC3)CCCCC2)c(OC)c1OC`, which cellular ATP content (survival) is on record?
Its cellular ATP content (survival) is inactive: -1.2%.

With `COc1ccc(NC2CCN(CCc3ccccc3)CC2)c(OC)c1` as the compound, how does the cellular ATP content (survival) read?
The cellular ATP content (survival) was inactive: 0.8%.

Which cellular ATP content (survival) does the source give for `CN(C)c1ccc(C(=O)NCC2(N3CCCCC3)CCCCC2)cc1` here?
The cellular ATP content (survival) was inactive: -0.7%.

With `CCN1CCC(Nc2cccc(F)c2)CC1` as the compound, how does the cellular ATP content (survival) read?
The cellular ATP content (survival) was inactive: -0.9%.

With `Fc1ccccc1NC1CCN(Cc2ccccc2)CC1` as the compound, how does the cellular ATP content (survival) read?
The cellular ATP content (survival) was inactive: -2%.

With `COc1cc(OC)cc(C(=O)NCC2(N3CCOCC3)CCCCC2)c1` as the compound, how does the cellular ATP content (survival) read?
Its cellular ATP content (survival) is inactive: 0.3%.

With `CCC(CO)(C(=O)OC1CN2CCC1CC2)c1ccccc1` (stereo unspecified) as the compound, how does the cellular ATP content (survival) read?
Its cellular ATP content (survival) is inactive: 2%.

Which cellular ATP content (survival) does the source give for `CCOc1ncccc1C(=O)NCC1(N2CCOCC2)CCCCC1` here?
The cellular ATP content (survival) was inactive: -3.5%.

With `O=C(OC1CN2CCC1CC2)C1c2ccccc2C=Cc2ccccc21` (stereo unspecified) as the compound, how does the cellular ATP content (survival) read?
The cellular ATP content (survival) was inactive: 0%.

Which cellular ATP content (survival) does the source give for `N/C(=N\O)c1c(N)no[n+]1[O-]` here?
The cellular ATP content (survival) was inactive: 1%.

Which cellular ATP content (survival) does the source give for `COc1ccc(C(=O)NCC2(N3CCOCC3)CCCCC2)cc1OC` here?
The cellular ATP content (survival) was inactive: -0.9%.

With `c1ccc(CN2CCC(Nc3ccccc3)CC2)cc1` as the compound, how does the cellular ATP content (survival) read?
The cellular ATP content (survival) was inactive: -0.7%.

With `N#Cc1ccc(C(=O)NCC2(N3CCCCC3)CCCCC2)cc1` as the compound, how does the cellular ATP content (survival) read?
The cellular ATP content (survival) was inactive: -0.5%.
